Experimental data published in patent US9072709B2 (The Regents of the University of California, priority 2009, dated 2015).

Key:
mice = assay: Hindquarter ectopic bone formation assay with human BBP plus rhBMP-2; assay type: in vivo; details: 5 μg rhBMP-2 alone or plus 0.05 mg hBBP, 4 weeks, DEXA
Method: (§1) The osteogenic activity of material was tested using male Swiss-Weber mice aged 8 to 10 weeks were used (Taconic Farms, Germantown, N.Y.). […] The dried material was placed in a #5 gelatin capsule and sterilized by exposure to chloroform vapor. To conduct the assay, mice were anesthetized using 1% isoflurane delivered in oxygen at 2 l/min through a small animal anesthesia machine (VetEquip, Pleasanton, Calif.). Animals were affixed to a surgery board and the fur over the hindquarters shaved. The skin was cleaned with 70% ethanol and a midline incision made over the spine adjacent to the hindquarters. Blunt dissection with scissors was used to expose the quadriceps muscle on one side. A small pouch was made in the muscle using the point of scissors and the #5 capsule containing the test material was inserted into the pouch. The skin was then closed with three 11 mm Michel surgical clips and the animal returned to its cage for monitoring.
After 21 days the animals were killed and the hindquarter removed. Radiological examination of the specimens was accomplished using a small parts X-Ray cabinet (Faxitron, Wheeling, Ill.). For quantization of bone formation, bone area and the bone mineral content (BMC) of an area of interest encompassing the site of ectopic bone formation was determined using a PIXImus2 small animal densitometer (GE Lunar, Madison, Wis.). […]

Swiss-Weber mice = assay: Mouse hindquarter (muscle pouch) ectopic bone formation assay, BBP alone or with rhBMP-2; assay type: in vivo
Method: as §1
After 21 days the animals were killed and the hindquarter removed. Radiological examination of the specimens was accomplished using a small parts X-Ray cabinet (Faxitron, Wheeling, Ill.). For quantization of bone formation, bone area and the bone mineral content (BMC) of an area of interest encompassing the site of ectopic bone formation was determined using a PIXImus2 small animal densitometer (GE Lunar, Madison, Wis.). Specimens were then placed in buffered formalin and submitted for routine processing for histological examination.
Samples of 5 μg of rhBMP-2 were used in more extensive subsequent studies because that amount consistently produced an amount of ectopic bone that was neither too large nor too small for reliable analysis.

[1] = In vivo retention of [125I]-labeled rhBMP-2 in absorbable collagen sponge implants with or without BBP; design: species or system Sprague-Dawley rats; details: ACS implant in rat abdominal musculature, vehicle or 0.5 mg BBP, mean ± S.E., n = 4
Method: Time to fusion was evaluated using plain radiographs. Fusion rate was determined by plain radiographs, manual palpation, and microcomputerized tomography (micro-CT). Histology was used to assess osseous characteristics of the fusion mass.
After approximately 10 minutes of incubation at room temperature the preparation was implanted by inserting it into a blind pouch created by gentle blunt dissection in the abdominal musculature. There were four samples for each treatment/time point (2 samples per rat and 2 rats per time point). The tracer retention was measured at 1, 3, and 7 days post-implantation by recovering the implants employing using a gamma-counter. Aliquots of the application fluids were counted at the time of implantation to determine total cpm at to. The percent of applied rhBMP-2 retained was calculated at each time point by dividing the explant-associated cpm with the cpm implanted at to.

[2] = BBP 0 μg, 5 μg of rhBMP-2, densitometry, 21 days, mean SE

rhBMP-2: recombinant human bone morphogenetic protein 2
Mean BMC content (mice): 0.00775 g | histological sections of mouse hind quarters (Swiss-Weber mice; 9 days after implantation, 5 μg of rhBMP-2 alone or plus 500 μg of BBP): earlier stages of inflammation and mesodermal cell proliferation | Bone Area (Swiss-Weber mice; [2]): 0.089 ± 0.0336 cm^2 | Bone Mineral Content (Swiss-Weber mice; [2]): 0.00189 ± 0.00084 g | Percent BMP-2 Retained, Day 3 [1]: 31.9 ± 2.07%
